Reference: patent US20100248265A1, “COMPOSITIONS AND METHODS FOR DIAGNOSIS AND TREATMENT OF CANCER” (The Salk Institute for Biological Studies, priority 2009, published 2010)

Biological target: mTOR (Homo sapiens, UniProt P42345)
Assay: Western blot for mTOR autophosphorylation at S2481 in cells treated with mTOR kinase inhibitors
Format: cell-based
Settings: actively growing Hela and MDA-MB-468 cells; 1 h at 37° C.

CCC(=O)N1CCN(c2ccc(-n3c(=O)ccc4cnc5ccc(-c6cnc7ccccc7c6)cc5c43)cc2C(F)(F)F)CC1 [Torin1]
mTOR autophosphorylation at S2481: abolished
